Results as given in article PMC7684764 (Journal of medicinal chemistry, 2020).

Columns and labels:
trypsin = trypsin used for the HDAC assay
MMP-2/MMP-9 = settings: 13a 50 μM and 10 μM, Figure S4
primary wt-p53 AML cells = test: cells; settings: Homo sapiens, read-out: EC50 in primary wt-p53 AML cells
MV4–11 cells = test: Western blot analysis; format: cell-based
RS4;11 cells = test: Western blot analysis; format: cell-based; settings: wt-p53 wt-FLT3 RS4;11, 24 h; 13a 200 nM, panobinostat 100 nM, vorinostat 5000 nM

CCCNNC(=O)/C=C/c1ccc(CNCCc2c(C)[nH]c3ccccc23)cc1.O=C(O)C(F)(F)F [Compound 13a, (E)-2-(2-methyl-1H-indol-3-yl)-N-(4-(3-oxo-3-(2-propylhydrazinyl)prop-1-en-1-yl)benzyl)ethanaminium 2,2,2-trifluoroacetate]
inhibition of trypsin (trypsin): does not show any inhibition
inhibition of MMP (MMP-2/MMP-9): does not show any inhibition
EC50 (primary wt-p53 AML cells): < 1000 nM

O=C(CCCCCCC(=O)Nc1ccccc1)NO [SAHA, vorinostat]
increase in Hsp70 levels (MV4–11 cells; 24 h, Figures 5A and C (MV4–11 and RS4;11)): observed
pro-caspase3 cleavage (MV4–11 cells; wt-p53 FLT3-ITD MV4–11, 24 h, Figure 5A): observed
cleavage of pro-caspase3 (RS4;11 cells): observed
